Literature values, collected in US6395467B1 (priority 1998, dated 2002).

System: rabbit renal cortical slices
Conditions: 50% w/v; cited from earlier work

Compound: CC(N)=O [Acetamide]
- toxicity to kidney slices: essentially non-toxic
